Source: publication PMC9959349, “Discovery of the 3-Amino-1,2,4-triazine-Based Library as Selective PDK1 Inhibitors with Therapeutic Potential in Highly Aggressive Pancreatic Ductal Adenocarcinoma” (International Journal of Molecular Sciences, 2023)

Sequences of proteins named here, by UniProt entry; tags and fusion partners are left off. Residues count along the entry.
UniProt Q15118, 29-436 limits assumed: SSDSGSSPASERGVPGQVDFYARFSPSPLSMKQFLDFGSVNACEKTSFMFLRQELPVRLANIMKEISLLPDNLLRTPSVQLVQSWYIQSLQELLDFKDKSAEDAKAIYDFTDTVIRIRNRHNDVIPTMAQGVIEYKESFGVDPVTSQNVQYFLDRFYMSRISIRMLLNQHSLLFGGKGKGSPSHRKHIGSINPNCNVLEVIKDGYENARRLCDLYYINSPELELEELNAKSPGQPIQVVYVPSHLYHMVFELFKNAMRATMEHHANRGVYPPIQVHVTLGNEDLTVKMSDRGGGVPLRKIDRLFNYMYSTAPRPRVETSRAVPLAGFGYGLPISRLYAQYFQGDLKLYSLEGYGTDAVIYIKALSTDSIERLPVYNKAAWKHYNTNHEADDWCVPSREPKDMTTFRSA
UniProt Q16654, whole entry: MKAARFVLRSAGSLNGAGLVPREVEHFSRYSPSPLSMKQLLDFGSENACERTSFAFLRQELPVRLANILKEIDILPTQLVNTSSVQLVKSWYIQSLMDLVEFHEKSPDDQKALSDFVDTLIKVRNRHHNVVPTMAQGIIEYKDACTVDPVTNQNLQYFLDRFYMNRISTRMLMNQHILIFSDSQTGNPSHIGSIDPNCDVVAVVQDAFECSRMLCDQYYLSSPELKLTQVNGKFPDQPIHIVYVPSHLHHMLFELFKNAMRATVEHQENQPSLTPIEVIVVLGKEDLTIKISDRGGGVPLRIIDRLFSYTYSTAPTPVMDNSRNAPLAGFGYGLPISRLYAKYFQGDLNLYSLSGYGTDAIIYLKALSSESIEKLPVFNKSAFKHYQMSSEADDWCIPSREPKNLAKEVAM

Tests used:
recombinant human PDK1 = recombinant human PDK1 (Homo sapiens, UniProt Q15118); assay: ADP-Glo kinase assay, PDK1; details: 1.5 µM compound, 30 min preincubation
recombinant human HSP90 = recombinant human HSP90 (Homo sapiens, UniProt P07900); assay: HSP90 inhibition assay (Transcreener ADP kit); details: 1.5 µM compound (equivalent doses)
PSN-1 cells [1] = assay: ROS production (CM-H2DCFDA); details: 5 µM test compounds, antimycin 3 µM as positive control
recombinant human PDK4 = recombinant human PDK4 (Homo sapiens, UniProt Q16654); assay: ADP-Glo kinase assay, PDK4; details: 1.5 µM compound
PSN-1 cells [2] = assay: Cellular lactate production; details: IC50 concentrations

COc1ccc2c(c1)c(-c1nc(N)nnc1-c1c[nH]c3ccc(F)cc13)cn2C
effect on enzymatic activity of PDK1 (recombinant human PDK1): totally suppressed | decrease of HSP90 catalytic activity (recombinant human HSP90): 60–80% | ROS basal level production / hydrogen peroxide formation (PSN-1 cells [1]): increase in the ROS basal level production | effect on PDK4 activity (ATP consumption) (recombinant human PDK4): completely blocked

COc1ccc2c(c1)c(-c1nc(N)nnc1-c1cn(C)c3ccc(Br)cc13)cn2C
decrease of HSP90 catalytic activity (recombinant human HSP90): 60–80% | lactate production (PSN-1 cells [2]): more potent than DAP | ROS basal level production / hydrogen peroxide formation (PSN-1 cells [1]): even higher than that provoked by antimycin
